How the values were obtained:
[1] = target: CaMKI(h) (Homo sapiens, UniProt Q14012); test: biochemical
[2] = target: USP35 (Homo sapiens, UniProt Q9P2H5); test: biochemical; conditions: read-out: Activity (% Control)
[3] = target: CDK14/cyclinY(h) (Homo sapiens, UniProt O94921); test: biochemical
[4] = target: PKD2(h) (Homo sapiens, UniProt Q9BZL6); test: biochemical
[5] = target: BMPR2(h) (Homo sapiens, UniProt Q13873); test: biochemical
[6] = target: DYRK1A(h) (Homo sapiens, UniProt Q13627); test: biochemical
[7] = target: EphB1(h) (Homo sapiens, UniProt P54762); test: biochemical
[8] = target: ROCK-II(h) (Homo sapiens, UniProt O75116); test: biochemical
[9] = target: Bmx(h) (Homo sapiens, UniProt P51813); test: biochemical
[10] = target: MEK1(h) (Homo sapiens, UniProt Q02750); test: biochemical
[11] = target: CaMKIdelta(h) (Homo sapiens, UniProt Q8IU85); test: biochemical
[12] = target: ALK(h) (Homo sapiens, UniProt Q9UM73); test: biochemical
[13] = target: BIKe(h) (Homo sapiens, UniProt Q9NSY1); test: biochemical
[14] = target: PKCbetaI(h) (Homo sapiens, UniProt P05771); test: biochemical
[15] = target: DAPK1(h) (Homo sapiens, UniProt P53355); test: biochemical
[16] = target: WNK4(h) (Homo sapiens, UniProt Q96J92); test: biochemical
[17] = target: JNK3(h) (Homo sapiens, UniProt P53779); test: biochemical
[18] = target: Glucocorticoid (Homo sapiens, UniProt P04150); test: biochemical; conditions: read-out: % Inh.
[19] = tested on: Molm-13; test: cells; conditions: Homo sapiens, MOLM-13, 72 h, read-out: antiproliferative effect
[20] = target: TBK1(h) (Homo sapiens, UniProt Q9UHD2); test: biochemical
[21] = target: AAK1(h) (Homo sapiens, UniProt Q2M2I8); test: biochemical
[22] = target: Hck(h) (Homo sapiens, UniProt P08631); test: biochemical
[23] = target: Rsk3(h) (Homo sapiens, UniProt Q15349); test: biochemical
[24] = target: PTK5(h) (Homo sapiens, UniProt P42685); test: biochemical
[25] = target: Monoamine Oxidase MAO-A (Homo sapiens, UniProt P21397); test: biochemical; conditions: read-out: % Inh.
[26] = target: MLK4(h) (Homo sapiens, UniProt Q5TCX8); test: biochemical
[27] = target: Bradykinin B1 (Homo sapiens, UniProt P46663); test: biochemical; conditions: read-out: % Inh.
[28] = target: Arg(h) (Homo sapiens, UniProt P42684); test: biochemical
[29] = target: Lck(h) (Homo sapiens, UniProt P06239); test: biochemical
[30] = target: ULK3(h) (Homo sapiens, UniProt Q6PHR2); test: biochemical
[31] = target: SGK(h) (Homo sapiens, UniProt O00141); test: biochemical
[32] = target: FGFR1(h) (Homo sapiens, UniProt P11362); test: biochemical
[33] = target: ALK1(h) (Homo sapiens, UniProt P37023); test: biochemical
[34] = target: ZAK(h) (Homo sapiens, UniProt Q9NYL2); test: biochemical
[35] = tested on: Glutamate, NMDA, Agonism; conditions: 10 µM
[36] = target: Thromboxane Synthase (Homo sapiens, UniProt P24557); test: biochemical; conditions: read-out: % Inh.
[37] = target: PKCiota(h) (Homo sapiens, UniProt P41743); test: biochemical
[38] = target: MAK(h) (Homo sapiens, UniProt P20794); test: biochemical
[39] = target: LATS2(h) (Homo sapiens, UniProt Q9NRM7); test: biochemical
[40] = target: CK1delta(h) (Homo sapiens, UniProt P48730); test: biochemical
[41] = target: SRPK1(h) (Homo sapiens, UniProt Q96SB4); test: biochemical
[42] = target: PRKG2(h) (Homo sapiens, UniProt Q13237); test: biochemical

Amino acid sequences for entries named in this document (tags omitted). A change or cut given only in a name is not applied to a line headed by its entry. Residues count along the entry.
UniProt Q14012: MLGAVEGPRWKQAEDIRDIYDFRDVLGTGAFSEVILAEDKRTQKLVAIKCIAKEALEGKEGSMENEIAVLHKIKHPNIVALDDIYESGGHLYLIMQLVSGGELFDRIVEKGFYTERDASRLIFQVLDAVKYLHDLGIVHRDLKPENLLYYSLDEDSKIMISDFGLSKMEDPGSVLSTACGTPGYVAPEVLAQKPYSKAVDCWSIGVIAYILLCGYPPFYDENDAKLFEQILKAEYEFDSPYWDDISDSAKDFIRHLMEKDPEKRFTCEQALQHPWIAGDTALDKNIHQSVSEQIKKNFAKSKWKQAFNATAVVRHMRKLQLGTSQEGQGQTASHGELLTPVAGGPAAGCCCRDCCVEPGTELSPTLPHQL
UniProt Q9UM73, 19-1620: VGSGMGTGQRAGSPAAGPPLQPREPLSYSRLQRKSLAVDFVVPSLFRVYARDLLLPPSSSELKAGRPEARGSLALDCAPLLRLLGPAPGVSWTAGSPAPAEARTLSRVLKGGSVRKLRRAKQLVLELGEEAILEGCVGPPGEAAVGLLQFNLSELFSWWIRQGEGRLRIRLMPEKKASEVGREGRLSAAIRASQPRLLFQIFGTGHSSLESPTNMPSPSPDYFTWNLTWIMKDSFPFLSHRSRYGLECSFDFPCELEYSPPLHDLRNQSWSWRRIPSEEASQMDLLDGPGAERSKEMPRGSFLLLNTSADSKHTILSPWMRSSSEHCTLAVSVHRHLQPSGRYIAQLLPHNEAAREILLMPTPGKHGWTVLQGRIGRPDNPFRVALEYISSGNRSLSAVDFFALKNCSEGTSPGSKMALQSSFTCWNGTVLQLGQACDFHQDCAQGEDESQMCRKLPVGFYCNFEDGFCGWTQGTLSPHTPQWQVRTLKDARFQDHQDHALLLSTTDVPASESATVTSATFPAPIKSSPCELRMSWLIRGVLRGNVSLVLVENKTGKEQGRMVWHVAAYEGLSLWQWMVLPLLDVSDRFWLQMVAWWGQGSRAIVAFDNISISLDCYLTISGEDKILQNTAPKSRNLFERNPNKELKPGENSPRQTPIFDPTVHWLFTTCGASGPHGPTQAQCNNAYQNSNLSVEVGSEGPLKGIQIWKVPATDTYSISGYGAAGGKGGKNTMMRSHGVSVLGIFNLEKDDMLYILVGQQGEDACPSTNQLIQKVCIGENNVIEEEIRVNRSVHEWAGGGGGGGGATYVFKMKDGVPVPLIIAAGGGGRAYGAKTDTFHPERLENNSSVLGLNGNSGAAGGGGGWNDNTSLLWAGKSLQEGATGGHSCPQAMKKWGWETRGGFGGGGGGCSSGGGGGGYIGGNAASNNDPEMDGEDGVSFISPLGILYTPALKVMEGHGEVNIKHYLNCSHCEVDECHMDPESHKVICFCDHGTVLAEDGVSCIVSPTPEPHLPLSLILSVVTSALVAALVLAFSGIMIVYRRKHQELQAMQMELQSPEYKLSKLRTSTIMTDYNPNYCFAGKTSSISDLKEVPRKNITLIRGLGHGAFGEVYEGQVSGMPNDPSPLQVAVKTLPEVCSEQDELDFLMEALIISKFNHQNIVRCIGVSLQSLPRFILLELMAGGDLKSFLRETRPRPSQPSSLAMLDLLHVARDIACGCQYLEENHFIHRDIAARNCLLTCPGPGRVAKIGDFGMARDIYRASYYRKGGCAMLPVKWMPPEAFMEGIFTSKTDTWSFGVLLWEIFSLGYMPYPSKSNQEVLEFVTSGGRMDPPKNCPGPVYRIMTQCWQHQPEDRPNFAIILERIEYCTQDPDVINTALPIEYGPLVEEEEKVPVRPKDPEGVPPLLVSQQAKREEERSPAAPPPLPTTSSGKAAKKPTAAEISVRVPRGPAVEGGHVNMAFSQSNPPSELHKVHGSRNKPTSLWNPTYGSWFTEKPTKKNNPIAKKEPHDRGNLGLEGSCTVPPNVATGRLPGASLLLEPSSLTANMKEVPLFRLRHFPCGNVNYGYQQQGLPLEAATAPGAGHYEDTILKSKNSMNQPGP
UniProt P04150: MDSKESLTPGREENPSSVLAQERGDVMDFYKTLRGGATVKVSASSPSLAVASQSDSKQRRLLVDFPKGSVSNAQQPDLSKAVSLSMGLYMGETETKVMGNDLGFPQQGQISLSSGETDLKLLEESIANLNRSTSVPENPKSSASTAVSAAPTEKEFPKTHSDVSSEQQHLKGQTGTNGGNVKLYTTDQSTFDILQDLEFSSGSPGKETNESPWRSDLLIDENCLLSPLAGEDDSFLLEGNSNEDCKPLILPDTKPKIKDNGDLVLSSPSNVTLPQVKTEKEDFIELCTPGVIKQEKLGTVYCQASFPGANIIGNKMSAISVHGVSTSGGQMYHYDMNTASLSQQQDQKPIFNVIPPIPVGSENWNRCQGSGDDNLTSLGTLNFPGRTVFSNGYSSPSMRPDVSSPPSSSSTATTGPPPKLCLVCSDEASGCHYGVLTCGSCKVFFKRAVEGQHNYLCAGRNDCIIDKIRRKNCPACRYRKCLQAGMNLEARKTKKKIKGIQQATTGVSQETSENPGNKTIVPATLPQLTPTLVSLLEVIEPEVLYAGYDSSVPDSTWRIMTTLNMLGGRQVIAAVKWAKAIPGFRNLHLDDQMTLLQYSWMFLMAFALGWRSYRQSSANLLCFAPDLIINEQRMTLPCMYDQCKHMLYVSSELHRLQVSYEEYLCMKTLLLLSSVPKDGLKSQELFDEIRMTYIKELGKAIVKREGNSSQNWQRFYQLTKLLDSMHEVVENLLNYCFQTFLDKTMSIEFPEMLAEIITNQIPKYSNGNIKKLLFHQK
UniProt Q2M2I8: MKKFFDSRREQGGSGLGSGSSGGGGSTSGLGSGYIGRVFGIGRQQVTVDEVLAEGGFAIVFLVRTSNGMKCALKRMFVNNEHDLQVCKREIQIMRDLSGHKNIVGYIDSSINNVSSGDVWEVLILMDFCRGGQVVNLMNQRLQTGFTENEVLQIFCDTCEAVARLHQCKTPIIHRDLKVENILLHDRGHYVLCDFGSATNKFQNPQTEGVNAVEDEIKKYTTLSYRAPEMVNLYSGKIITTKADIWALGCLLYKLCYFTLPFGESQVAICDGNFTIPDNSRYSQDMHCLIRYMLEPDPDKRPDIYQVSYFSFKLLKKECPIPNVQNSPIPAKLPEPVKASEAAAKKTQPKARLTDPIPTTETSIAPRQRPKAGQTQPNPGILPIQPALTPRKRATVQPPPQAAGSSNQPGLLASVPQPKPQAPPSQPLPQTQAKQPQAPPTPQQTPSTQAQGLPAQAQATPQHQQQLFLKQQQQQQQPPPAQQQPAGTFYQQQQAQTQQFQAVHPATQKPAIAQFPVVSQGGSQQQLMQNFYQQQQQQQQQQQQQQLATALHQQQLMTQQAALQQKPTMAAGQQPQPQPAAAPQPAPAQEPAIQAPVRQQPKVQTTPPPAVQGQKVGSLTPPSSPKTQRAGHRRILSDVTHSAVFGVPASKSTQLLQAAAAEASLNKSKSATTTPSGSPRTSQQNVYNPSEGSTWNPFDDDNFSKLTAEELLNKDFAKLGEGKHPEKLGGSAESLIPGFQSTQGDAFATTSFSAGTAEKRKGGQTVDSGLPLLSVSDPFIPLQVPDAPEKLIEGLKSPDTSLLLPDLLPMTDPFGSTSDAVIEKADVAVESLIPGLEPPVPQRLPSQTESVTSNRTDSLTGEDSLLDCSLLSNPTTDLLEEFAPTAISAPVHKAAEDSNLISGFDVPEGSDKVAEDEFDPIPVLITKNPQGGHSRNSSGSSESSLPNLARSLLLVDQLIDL
UniProt P08631: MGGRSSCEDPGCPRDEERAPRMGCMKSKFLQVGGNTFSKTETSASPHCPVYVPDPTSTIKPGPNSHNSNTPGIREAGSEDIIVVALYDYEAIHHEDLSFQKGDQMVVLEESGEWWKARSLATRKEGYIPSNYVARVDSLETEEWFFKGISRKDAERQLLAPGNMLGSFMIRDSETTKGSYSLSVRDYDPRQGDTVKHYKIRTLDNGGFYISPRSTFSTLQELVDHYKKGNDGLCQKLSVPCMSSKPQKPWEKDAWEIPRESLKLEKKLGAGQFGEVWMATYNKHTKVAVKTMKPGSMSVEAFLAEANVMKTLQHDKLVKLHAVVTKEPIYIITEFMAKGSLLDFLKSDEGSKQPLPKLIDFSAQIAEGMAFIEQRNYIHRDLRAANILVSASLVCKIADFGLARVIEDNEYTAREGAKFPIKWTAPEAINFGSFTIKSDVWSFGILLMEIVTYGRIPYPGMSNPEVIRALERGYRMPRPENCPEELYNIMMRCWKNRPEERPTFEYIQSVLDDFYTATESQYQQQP
UniProt P06239: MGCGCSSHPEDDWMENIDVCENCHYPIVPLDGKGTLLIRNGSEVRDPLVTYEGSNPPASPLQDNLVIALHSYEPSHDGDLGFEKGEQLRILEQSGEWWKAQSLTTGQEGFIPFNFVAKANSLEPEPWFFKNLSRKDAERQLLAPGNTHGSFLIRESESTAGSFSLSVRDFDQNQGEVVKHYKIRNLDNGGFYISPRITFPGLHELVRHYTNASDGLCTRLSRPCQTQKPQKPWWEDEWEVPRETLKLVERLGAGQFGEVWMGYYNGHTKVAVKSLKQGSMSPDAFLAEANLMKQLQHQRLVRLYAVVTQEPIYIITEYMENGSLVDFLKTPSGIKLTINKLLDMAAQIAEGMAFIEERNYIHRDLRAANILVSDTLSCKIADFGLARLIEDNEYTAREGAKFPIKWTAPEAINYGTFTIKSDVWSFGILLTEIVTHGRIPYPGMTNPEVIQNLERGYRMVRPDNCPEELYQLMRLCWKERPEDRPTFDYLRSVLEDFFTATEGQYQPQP
UniProt Q6PHR2: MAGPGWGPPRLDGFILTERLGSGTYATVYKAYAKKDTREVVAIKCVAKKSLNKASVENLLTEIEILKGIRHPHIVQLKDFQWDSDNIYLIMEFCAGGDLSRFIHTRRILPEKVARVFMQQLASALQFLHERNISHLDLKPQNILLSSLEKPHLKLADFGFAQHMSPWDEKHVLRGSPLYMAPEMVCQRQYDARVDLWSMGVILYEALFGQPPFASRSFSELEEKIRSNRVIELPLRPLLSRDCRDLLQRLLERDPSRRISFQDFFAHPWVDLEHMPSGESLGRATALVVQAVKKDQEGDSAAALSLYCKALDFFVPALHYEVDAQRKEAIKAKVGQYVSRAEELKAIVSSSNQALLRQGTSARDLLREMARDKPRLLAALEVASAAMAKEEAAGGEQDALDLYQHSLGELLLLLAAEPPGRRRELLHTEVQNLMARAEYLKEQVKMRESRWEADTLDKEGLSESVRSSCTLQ
UniProt P41743, whole entry: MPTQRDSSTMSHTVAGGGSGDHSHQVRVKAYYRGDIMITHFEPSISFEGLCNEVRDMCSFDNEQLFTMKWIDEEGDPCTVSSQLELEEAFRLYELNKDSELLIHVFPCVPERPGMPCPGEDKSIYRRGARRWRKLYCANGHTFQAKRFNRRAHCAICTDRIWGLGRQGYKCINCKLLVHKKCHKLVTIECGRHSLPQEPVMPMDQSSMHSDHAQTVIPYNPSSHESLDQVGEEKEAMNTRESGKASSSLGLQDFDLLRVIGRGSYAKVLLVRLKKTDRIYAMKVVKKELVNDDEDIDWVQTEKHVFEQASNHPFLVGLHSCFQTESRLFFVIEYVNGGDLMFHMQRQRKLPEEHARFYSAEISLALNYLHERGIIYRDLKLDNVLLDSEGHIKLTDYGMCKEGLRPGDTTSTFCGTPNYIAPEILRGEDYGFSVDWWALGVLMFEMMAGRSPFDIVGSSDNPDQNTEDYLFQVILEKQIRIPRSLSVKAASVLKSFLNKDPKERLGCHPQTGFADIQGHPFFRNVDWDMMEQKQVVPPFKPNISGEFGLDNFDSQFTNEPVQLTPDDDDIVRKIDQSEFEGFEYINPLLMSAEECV
UniProt Q96SB4, whole entry: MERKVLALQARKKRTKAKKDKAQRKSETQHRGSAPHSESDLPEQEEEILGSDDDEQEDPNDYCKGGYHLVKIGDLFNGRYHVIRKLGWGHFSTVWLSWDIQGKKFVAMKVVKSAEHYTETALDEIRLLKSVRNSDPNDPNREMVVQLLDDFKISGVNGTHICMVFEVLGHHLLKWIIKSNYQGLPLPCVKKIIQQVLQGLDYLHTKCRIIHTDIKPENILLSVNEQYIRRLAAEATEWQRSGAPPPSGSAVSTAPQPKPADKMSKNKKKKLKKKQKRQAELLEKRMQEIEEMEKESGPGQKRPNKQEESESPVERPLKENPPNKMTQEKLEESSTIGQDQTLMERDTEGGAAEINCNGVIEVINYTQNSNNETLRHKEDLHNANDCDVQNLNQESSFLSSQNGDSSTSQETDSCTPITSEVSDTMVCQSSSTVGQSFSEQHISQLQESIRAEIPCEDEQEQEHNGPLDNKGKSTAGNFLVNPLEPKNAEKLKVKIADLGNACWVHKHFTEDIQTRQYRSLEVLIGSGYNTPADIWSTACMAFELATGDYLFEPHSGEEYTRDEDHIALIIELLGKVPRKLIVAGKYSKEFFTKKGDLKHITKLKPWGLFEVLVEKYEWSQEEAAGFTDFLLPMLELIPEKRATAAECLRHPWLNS

CC(C)C[C@H](NC(=O)C1(C(F)(F)F)CCCCC1)C(=O)Nc1nnc(Cc2ccc(C#N)cc2)s1 [Compound 22, CC(C)C[C@H](NC(=O)C1(CCCCC1)C(F)(F)F)C(=O)Nc2nnc(Cc3ccc(cc3)C#N)s2]
inhibition at 10 µM [1]: -2.64% | remaining activity at 1 µM [2]: 109% | remaining activity at 10 µM [2]: 110% | inhibition at 10 µM [3]: 0.44% | inhibition at 10 µM [4]: 0.72% | inhibition at 10 µM [5]: 1.41% | inhibition at 10 µM [6]: -5.31% | inhibition at 10 µM [7]: 4.2% | inhibition at 10 µM [8]: -4.94% | inhibition at 10 µM [9]: 16.1% | inhibition at 10 µM [10]: 1.44% | inhibition at 10 µM [11]: -10.5% | inhibition at 10 µM [12]: 11.5% | inhibition at 10 µM [13]: -13.9% | inhibition at 10 µM [14]: -1.7% | inhibition at 10 µM [15]: 0.15% | inhibition at 10 µM [16]: 9.62% | inhibition at 10 µM [17]: -3.97% | inhibition at 10 µM [18]: 43% | IC50 [19]: > 30 µM | inhibition at 10 µM [20]: -1.29% | inhibition at 10 µM [21]: 3.69% | inhibition at 10 µM [22]: 4.11% | inhibition at 10 µM [23]: 0.77% | inhibition at 10 µM [24]: -6.75% | inhibition at 10 µM [25]: 5% | inhibition at 10 µM [26]: -1.94% | inhibition at 10 µM [27]: 23% | inhibition at 10 µM [28]: -13.7% | inhibition at 10 µM [29]: -8.47% | inhibition at 10 µM [30]: -3.51% | inhibition at 10 µM [31]: -7.07% | inhibition at 10 µM [32]: 2.15% | inhibition at 10 µM [33]: -3.75% | inhibition at 10 µM [34]: -5.15% | % Inh. [35]: 5 | inhibition at 10 µM [36]: 15% | inhibition at 10 µM [37]: 2.1% | inhibition at 10 µM [38]: -2.88% | inhibition at 10 µM [39]: 4.04% | inhibition at 10 µM [40]: -2.63% | inhibition at 10 µM [41]: -6.69% | inhibition at 10 µM [42]: 3.67%

CC(C)C[C@@H](NC(=O)C1(C(F)(F)F)CCCCC1)C(=O)Nc1nnc(Cc2ccc(C#N)cc2)s1 [Compound 21, N-[(1R)-1-[[5-[(4-Cyanophenyl)methyl]-1,3,4-thiadiazol-2-yl]carbamoyl]-3-methyl-butyl]-1-(trifluoromethyl)cyclohexanecarboxamide]
inhibition at 10 µM [1]: 0.22% | remaining activity at 1 µM [2]: 109% | remaining activity at 10 µM [2]: 105% | inhibition at 10 µM [3]: 0.61% | inhibition at 10 µM [4]: 8.25% | inhibition at 10 µM [5]: 2.11% | inhibition at 10 µM [6]: -2.65% | inhibition at 10 µM [7]: -31.5% | inhibition at 10 µM [8]: 2.99% | inhibition at 10 µM [9]: 22.9% | inhibition at 10 µM [10]: -0.02% | inhibition at 10 µM [11]: -9.34% | inhibition at 10 µM [12]: 9.29% | inhibition at 10 µM [13]: 7.79% | inhibition at 10 µM [14]: -0.63% | inhibition at 10 µM [15]: 0.57% | inhibition at 10 µM [16]: 9.12% | inhibition at 10 µM [17]: 8.85% | inhibition at 10 µM [18]: 14% | IC50 [19]: > 30 µM | inhibition at 10 µM [20]: -1.33% | inhibition at 10 µM [21]: 4.09% | inhibition at 10 µM [22]: 15.3% | inhibition at 10 µM [23]: -1.16% | inhibition at 10 µM [24]: -5.66% | inhibition at 10 µM [25]: 3% | inhibition at 10 µM [26]: 5.22% | inhibition at 10 µM [27]: 6% | inhibition at 10 µM [28]: -7.9% | inhibition at 10 µM [29]: 3.09% | inhibition at 10 µM [30]: 5.11% | inhibition at 10 µM [31]: -0.2% | inhibition at 10 µM [32]: -3.5% | inhibition at 10 µM [33]: 2.39% | inhibition at 10 µM [34]: -1.56% | % Inh. [35]: 7 | inhibition at 10 µM [36]: -1% | inhibition at 10 µM [37]: 0.81% | inhibition at 10 µM [38]: 2.05% | inhibition at 10 µM [39]: 15.2% | inhibition at 10 µM [40]: 9.09% | inhibition at 10 µM [41]: -23.2% | inhibition at 10 µM [42]: -1.61%

Reference: paper PMC10009755, “Discovery and Characterization of BAY-805, a Potent and Selective Inhibitor of Ubiquitin-Specific Protease USP21” (Journal of Medicinal Chemistry, 2023)
